Binding of CDR-mutated scFvs to a peptide of the spike HR2 region

The target is the same throughout: PDVDLGDISGINAS, from the HR2 region of SARS-CoV-2 spike.

Ab-95 is the parent antibody, in scFv form: VH, then a (GGGGS)3 linker, then VL. The heavy chain is unchanged in all variants.
VH: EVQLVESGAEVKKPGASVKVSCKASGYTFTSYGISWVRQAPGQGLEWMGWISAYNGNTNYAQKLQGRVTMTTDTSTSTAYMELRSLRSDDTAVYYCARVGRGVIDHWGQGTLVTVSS
VL: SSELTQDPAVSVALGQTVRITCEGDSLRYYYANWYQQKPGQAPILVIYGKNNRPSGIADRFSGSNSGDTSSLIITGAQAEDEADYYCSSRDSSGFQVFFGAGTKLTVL

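In library AAYL52, one, two or three CDR residues were substituted; doubles and triples were drawn at random. The scFvs were displayed on barcoded MATa yeast, the peptide on MATalpha yeast. Pairs that bind mate more often; barcode pairs of the diploids are counted by sequencing. The ratio of observed to expected reads was calibrated, replicate by replicate, on BCL2-family standards whose Kd was known from biolayer interferometry. Mating was done three times.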

The whole VL of each variant is written out. Values are log10 of the apparent Kd in nM; lower means stronger binding. Replicates are averaged; those with no signal do not enter the mean. An entry "nd" has no value in the source: the pair was not observed among the diploids in that replicate. This suggests poor binding but is not conclusive. Background: pairings of library AAYL52 with three empty control strains gave a value in 28% of cases (median 3.91, 5th percentile 2.90). Values in that range, when seen in few replicates, are hard to tell from nonspecific mating.

VL	log10 Kd, replicates	mean log10 Kd (nM)
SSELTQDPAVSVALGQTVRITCEGDSLRYYYANWYQQKPGQAPILVIYNCNNRPSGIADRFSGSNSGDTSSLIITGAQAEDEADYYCSSRDSSGFAVFFGAGTKLTVL	4.18 4.07 4.57	4.27
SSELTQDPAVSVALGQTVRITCEGDSLRYSYACWYQQKPGQAPILVIYGKNNRPSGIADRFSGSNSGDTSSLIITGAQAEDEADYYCMSRDSSGFQVFFGAGTKLTVL	2.53 1.85 nd	2.19
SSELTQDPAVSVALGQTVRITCHGDSLRYYYANWYQQKPGQAPILVIYGKNNRPSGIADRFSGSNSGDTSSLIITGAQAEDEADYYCSSRDSMSFQVFFGAGTKLTVL	2.55 2.39 2.53	2.49
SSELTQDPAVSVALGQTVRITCEGDSLRYYYAMWYQQKPGQAPILVIYGFNNRPSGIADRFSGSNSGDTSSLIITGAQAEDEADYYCSSRDSSGFQAFFGAGTKLTVL	3.99 nd 3.91	3.95
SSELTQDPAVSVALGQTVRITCEGDSLRYYYANWYQQKPGQAPILVIYLKNNRPSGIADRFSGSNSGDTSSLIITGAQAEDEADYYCSSDDSSGFQVAFGAGTKLTVL	3.57 nd nd	3.57
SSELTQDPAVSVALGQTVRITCEGDSLREYYANWYQQKPGQAPILVIYWTNNRPSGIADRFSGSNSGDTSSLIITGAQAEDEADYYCSSRDSSGFQVFFGAGTKLTVL	3.87 4.49 3.74	4.03
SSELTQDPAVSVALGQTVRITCEGDKLRYYYANWYQQKPGQAPILVIYGKNNRPSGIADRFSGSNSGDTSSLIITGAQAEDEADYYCSSRDSPGFQVFFGAGTKLTVL	nd 3.74 nd	3.74
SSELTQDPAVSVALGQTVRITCEGDSLRYMYANWYQQKPGQAPILVIYGKNNRPSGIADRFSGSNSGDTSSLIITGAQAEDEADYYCSHRDSSGIQVFFGAGTKLTVL	1.30 1.83 0.81	1.31
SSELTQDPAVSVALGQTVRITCEGDSLSYYYANWYQQKPGQAPILVIYGKNNRPSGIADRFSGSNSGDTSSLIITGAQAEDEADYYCSSRDSSGEQVKFGAGTKLTVL	2.94 2.54 2.38	2.62
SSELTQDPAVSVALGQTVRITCEGDSLRYYYAVWYQQKPGQAPILVIYAKNNRPSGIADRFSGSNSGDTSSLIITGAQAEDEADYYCSSRTSSGFQVFFGAGTKLTVL	4.69 4.43 3.22	4.12
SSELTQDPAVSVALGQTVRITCEGDSLRYYYANWYQQKPGQAPILVIYGKNNEPSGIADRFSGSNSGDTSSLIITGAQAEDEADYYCSSFDSNGFQVFFGAGTKLTVL	3.91 nd nd	3.91
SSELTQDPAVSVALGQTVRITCEQDSLRYYYANWYQQKPGQAPILVIYGKNGYPSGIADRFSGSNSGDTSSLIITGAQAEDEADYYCSSRDSSGFQVFFGAGTKLTVL	3.72 5.27 nd	4.49
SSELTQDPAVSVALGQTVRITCEGDSARYYYANWYQQKPGQAPILVIYNKNNRPSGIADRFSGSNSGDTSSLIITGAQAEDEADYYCSSRDSSGFQVFFGAGTKLTVL	nd 3.32 4.28	3.80
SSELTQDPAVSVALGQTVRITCEGDSSRYYCANWYQQKPGQAPILVIYGKNNRPSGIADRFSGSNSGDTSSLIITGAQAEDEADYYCSSLDSSGFQVFFGAGTKLTVL	4.25 nd nd	4.25
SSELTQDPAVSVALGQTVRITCEGDSLRCSYANWYQQKPGQAPILVIYGKNNRPSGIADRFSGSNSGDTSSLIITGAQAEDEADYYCSSRDSSGFQAFFGAGTKLTVL	2.18 2.60 1.88	2.22
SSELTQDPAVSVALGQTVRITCEGDSLRYYYANWYQQKPGQAPILVIYGKNNYPSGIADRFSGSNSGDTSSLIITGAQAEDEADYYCSSSDSSGFQVKFGAGTKLTVL	nd 5.17 nd	5.17
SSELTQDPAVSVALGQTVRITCEGDSLRYYYANWYQQKPGQAPILVIYGKNNRPSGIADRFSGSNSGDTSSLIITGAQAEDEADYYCSSRGGSGFQVFFGAGTKLTVL	3.82 3.96 nd	3.89
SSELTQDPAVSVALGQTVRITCEGDFLRYYYANWYQQKPGQAPILVIYGKNNRVSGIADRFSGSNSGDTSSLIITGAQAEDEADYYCSSRDSSGFQFFFGAGTKLTVL	nd nd nd	nd
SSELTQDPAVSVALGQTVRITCIEDSLRYYYANWYQQKPGQAPILVIYGKNNRPSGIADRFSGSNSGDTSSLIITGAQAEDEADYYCSSRDSSFFQVFFGAGTKLTVL	2.86 nd nd	2.86
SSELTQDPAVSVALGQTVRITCEGDSLRHYYHNWYQQKPGQAPILVIYGKNNRPSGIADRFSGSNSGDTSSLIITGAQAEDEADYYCSSRDSSGFLVFFGAGTKLTVL	3.09 2.64 2.62	2.79
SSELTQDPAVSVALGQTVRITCEADSLRYYYANWYQQKPGQAPILVIYCKNNRPSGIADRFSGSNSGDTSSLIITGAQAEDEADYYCSSRDSVGFQVFFGAGTKLTVL	nd 5.63 nd	5.63

Picked from the list: the 2 lowest averages where every replicate gave a value.

VL,"log10 Kd, replicates",mean log10 Kd (nM)
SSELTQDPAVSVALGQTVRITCEGDSLRYMYANWYQQKPGQAPILVIYGKNNRPSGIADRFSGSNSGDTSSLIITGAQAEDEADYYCSHRDSSGIQVFFGAGTKLTVL,1.30 1.83 0.81,1.31
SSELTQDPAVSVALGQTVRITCEGDSLRCSYANWYQQKPGQAPILVIYGKNNRPSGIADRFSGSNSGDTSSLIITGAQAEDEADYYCSSRDSSGFQAFFGAGTKLTVL,2.18 2.60 1.88,2.22

The measurements come from Engelhart et al. 2022 (doi:10.1038/s41597-022-01779-4) through the FLAb antibody collection.